# Reference: patent publication US20010016643A1, “Peptide derivatives” (priority 1995, published 2001)
# Test: Determination of protraction in pigs: disappearance of labelled peptide from the subcutaneous injection site
# Conditions: 125I-labelled peptide, external γ-counter
substance,measurement,value
"Arg^4,Arg^9,Lys^15 (N^ε-tetradecanoyl) somatostatin [Example 4]",T50% (time when 50% of the labelled peptide has disappeared from the site of injection),1.7 ± 0.5 h
